Assay results from ChEMBL document CHEMBL1134498, “Experimental and computational screening models for the prediction of intestinal drug absorption” (J Med Chem, 2001).
This is a selection: effects in other tests are not listed, and their absence says nothing.

Columns and labels:
[1] = Apparent permeability coefficient (Papp) (Caco-2 cell monolayer); assay type: ADME, cell-based; settings: human
[2] = species on record: Homo sapiens; assay: Cellular permeability (Pc) (Caco-2 cell monolayer); assay type: ADME

`CCC(=O)N(c1ccccc1)C1(COC)CCN(CCn2nnn(CC)c2=O)CC1` gave a Papp [1] of 83 ×10⁻⁶ cm/s and a Pc [2] of 310 ×10⁻⁶ cm/s.
